Target: HIV-1 IN (rIN), strand transfer (Human immunodeficiency virus type 1 group M subtype B, UniProt P04585)
Experiment: HIV-1 IN gel-based assay, strand transfer
Type: biochemical
Conditions: IC50 for strand transfer

IC50: < 100 nM
SMILES: CC(=O)N1CCN(c2ccc3c(=O)c(C(=O)/C=C(\O)C(=O)O)cn(Cc4ccc(F)cc4)c3c2)CC1 [Compound 12d, 4-[1-[(4-Fluorophenyl)methyl]-7-(N-acetylpiperazin-1-yl)-4-(1H)-quinolinon-3-yl]-2-hydroxy-4-oxo-2-butenoic Acid]

Source: article PMC4203401 (Journal of Medicinal Chemistry, 2014)
